Substance	rate of incorporation of [3H]prenyl into substrate protein (acid/ethanol insoluble radioactivity) (nmol · h^-1 · mg^-1) (Ras-CAIL)	rate of incorporation of [3H]prenyl into substrate protein (acid/ethanol insoluble radioactivity) (nmol · h^-1 · mg^-1) (Ras-CVLS)
recombinant human FTase (protein farnesyltransferase) (from UniProt P49354) (enzyme)	66	840
recombinant human GGTase-I (protein geranylgeranyltransferase type I) expressed in E. coli from pRD577 (from UniProt P49354) (enzyme)	1060	< 1

Reference: patent US5789558
